Consider two substances from US20210000842A1, “TETRACYCLINE MANAGEMENT OF EGFR INHIBITOR ASSOCIATED DERMATOSES” (Foamix Pharmaceuticals Ltd., priority 2015, published 2021).

Common to all, as to type: physicochemical
Series [1] can be described thus: Compatibility study of minocycline hydrochloride with excipients (visual inspection). The note with it: for Compatibility with Minocycline HCl: summary, tested after the storage for up to 3 weeks.
Series [2] in a line: Doxycycline Monohydrate compatibility test. Here is the method: Active agent is incubated with various excipients individually at one or more temperatures and at different ratios of active agent to a single excipient for a certain fixed period or to the point where degradation was suspected. The period can be for example 3 or 7 or 14 or 21 or 28 days or longer. Visual inspection is a criterion for indication of compatibility. Any change of color indicates oxidation or degradation. […] Tests are also carried out with combinations of excipients.
A similar compatibility study was conducted for Doxycycline Hyclate and Doxycycline Monohydrate.
Different compositions of hydrophilic and hydrophobic solvents containing Doxycycline Hyclate (Set I and Set II) and Doxycycline Monohydrate (Set III) were prepared by weighing the antibiotic in a glass vial and shaking overnight with each solvent investigated.
A similar compatibility test was performed on another form of Doxycycline—Doxycycline Monohydrate.

Series [3] is described as follows: Doxycycline Hyclate compatibility test. The conditions noted are these: summary; tested after the storage for up to 3 weeks.
Where [4] appears, read: summary, tested after the storage for up to 3 weeks.

On to Hexylene Glycol, for which the “Compatibility with MCH: hydrophilic solvents” value in series [1] (MCH: excipient 1:250, suspension at 25° C. and 40° C. for maximum of sixty days, visual inspection) is reported as “incompatible”. For the same substance, the “Compatibility with Minocycline HCl” value in series [1] is recorded as “No”. In addition, the “Visual inspection after the storage at 50° C.” value in series [2] (mixture of 1.04% w/w Doxycycline Monohydrate with the ingredient, stored two weeks) is on record as “Black solution”. For the same substance, the “Compatibility with Doxycycline Monohydrate” value is on record as “oxidized” in series [2] (mixtures of 1.04% w/w, excipient named as label, storage at 25° C., 40° C. and 50° C. for two weeks); “No” in series [2] (setting [4]).
As for Cetearyl octanoate, in series [1] (MCH:excipient 1:250 for oily emollients and 1:50 for waxes, 25° C. and 40° C., max sixty days, visual inspection), the “Compatibility with MCH: oily emollients and waxes” value is given as “compatible”. Also, in series [1], the “Compatibility with Minocycline HCl” value is “Yes”. Also, the “Compatibility with Doxycycline Hyclate” value in series [3] was “Yes”. In series [2] (setting [4]), the “Compatibility with Doxycycline Monohydrate” value is reported as “Yes”.
